Molecular target: human KOR (Homo sapiens, UniProt P41145)
Assay: [35S]GTPγS binding assay (G protein activation), CHO-hKOR cell membranes
Type: biochemical

Protein sequences, listed by entry. Tags and fused reporters are not part of them. Lines headed by an entry give the natural chain unless they say otherwise; changes in a name come on top.
UniProt P41145: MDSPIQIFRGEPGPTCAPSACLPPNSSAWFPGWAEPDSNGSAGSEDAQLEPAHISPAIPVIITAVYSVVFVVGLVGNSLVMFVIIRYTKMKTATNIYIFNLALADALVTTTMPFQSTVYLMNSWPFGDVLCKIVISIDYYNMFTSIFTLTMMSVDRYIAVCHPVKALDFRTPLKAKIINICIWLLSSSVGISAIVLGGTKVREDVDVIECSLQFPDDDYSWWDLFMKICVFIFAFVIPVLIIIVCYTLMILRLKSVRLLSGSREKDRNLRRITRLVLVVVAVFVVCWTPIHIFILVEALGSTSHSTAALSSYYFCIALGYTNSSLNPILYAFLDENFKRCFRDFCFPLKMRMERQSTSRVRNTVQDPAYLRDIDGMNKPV

For `COC(=O)[C@@H]1C[C@H](OC(C)=O)C(=O)[C@H]2[C@@]1(C)CC[C@H]1C(=O)O[C@H](c3ccoc3)C[C@]21C` [SalA, Salvinorin A], the “G protein activation Emax” value was 100 ± 1%.

Source: publication PMC11345774, “Discovery of Novel, Selective, and Nonbasic Agonists for the Kappa-Opioid Receptor Determined by Salvinorin A-Based Virtual Screening” (Journal of Medicinal Chemistry, 2024)
